Assay results taken from PMC9032934 (Pharmaceutics, 2022).

Target: TatRI-iCAL36
Test: fluorescence polarization

Ki: 1500 nM
Substance: CAL PDZ domain PDZ (from UniProt Q9HD26)
